Values of other authors in US20130216523A1, “Methods for Facilitating Diagnosis, Prognosis and Treatment of Cancer by Detecting HER1 Expression” (LABORATORY CORPORATION OF AMERICA HOLDINGS, priority 2011, published 2013).

System: recurrent and/or metastatic SCCHN
Conditions: Vermorken et al. 2008, 2007

## cetuximab
  subjects with SCCHN that respond to treatment: 13-16%
